Earlier results as cited in paper PMC2989597 (Current topics in medicinal chemistry, 2009).

System: TSHR
Conditions: read-out: EC50 concentration; cAMP accumulation, HEK-EM 293 cells stably expressing TSHR; cited from earlier work

In the case of TSH: thyroid stimulating hormone, the EC50 is listed as 1.8 nM.
